Ab-14 heavy chain CDR variants: yeast mating affinities

Target peptide (SARS-CoV-2 spike, HR2 region): PDVDLGDISGINAS

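The parent was found by panning a naive human phage display library on the peptide. This is the validation round: designs drawn from the data on random variants, tested in the same kind of assay. Group labels follow the data file (Ctrl: baseline library sampled from a position-specific scoring matrix, with some repeated check sequences; Rand: our label for a block that the file lists under HC and that is probably the random mutants of the ten best first-round binders; GP: Gaussian process model; GPLM: also part of the Gaussian process libraries; HC: hill climbing; Gen: genetic algorithm; Gibbs: Gibbs sampling; a sequence that several methods proposed may carry one label only). AlphaSeq pools MATa yeast showing the antibodies with MATalpha yeast showing the peptide. Binding brings cells together so that they mate, and sequencing counts the barcode pairs among the diploids. A regression on co-assayed BCL2-family reference pairs converts the normalised counts of each replicate to an apparent Kd. Mating was done six times.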

The variants keep the light chain, the linker and the frameworks of Ab-14 (scFv order VH, a (GGGGS)3 linker, VL).
VH: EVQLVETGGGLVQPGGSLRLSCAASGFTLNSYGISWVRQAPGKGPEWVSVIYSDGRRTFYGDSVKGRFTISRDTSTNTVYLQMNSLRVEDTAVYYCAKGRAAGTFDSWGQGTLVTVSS
VL: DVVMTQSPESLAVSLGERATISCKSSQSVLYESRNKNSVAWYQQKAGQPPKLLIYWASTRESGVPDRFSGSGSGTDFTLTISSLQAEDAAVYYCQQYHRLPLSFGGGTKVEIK

The parent's heavy chain CDRs are GFTLNSYGIS, VIYSDGRRTFYGDSVK, GRAAGTFDS; each variant's own CDRs replace them letter for letter.
This list holds designs with at most six substitutions.
Kd is apparent (estimated from mating counts) and averaged on the log scale over replicates with a signal. Smaller is tighter.
"nd" marks a missing value. The strain was present, yet no cells mated with the target were sequenced in any replicate, which points to weak or no binding.
A sequence measured in both rounds can read differently, since the two assays cover different ranges.
Background: pairings of all heavy chain designs with three empty control strains gave a value in 1% of cases (median 120 nM, 5th percentile 7.0 nM). Values in that range, when seen in few replicates, are hard to tell from nonspecific mating.
Of ten entries with the parent sequence, four were seen in most replicates (averages 2.2 nM to 240 nM), three in one and three in none, so single entries are noisy.
The authors averaged sequences with at least three values out of six and counted those with two or fewer as poor binders.
Some sequences occur more than once in the pool; their replicates are pooled.

Variant NFTLESYGIS, VIYSDGRRTFYDDSVK, GQLAGTFDS [GP_HC] showed 40 nM (2 of 6 replicates).
Variant GFSLNQYGIS, VIYSDGRRTFYHDSVK, GRAAGTFDS [GPLM_HC] showed 2.2 nM (6 of 6 replicates).
Variant GFSLNSYGIS, VIYSDGQRTGYNDSVK, GTAALTFDS [Ctrl] showed nd (0 of 6 replicates).
Variant GFDLNSYGIS, VIYSDGRRTFYTDSVK, GRQAGTFDS [Ctrl+GP_Gen] showed 2.1 nM (12 of 12 replicates).
Variant GFVLNEYGIS, VIYSDGRRTFYGDSVK, GRHAGTFDS [GPLM_Gen] showed 88 nM (5 of 6 replicates).
Variant GFSLNSYGIS, VIYSDGRRTFYADHVK, GKAAGTFDR [GP_Gibbs] showed 89 nM (4 of 6 replicates).
Variant GFTLNNYGIS, VIYSDGERTFYHDSVK, GRAAGTFLS [Ctrl] showed nd (0 of 6 replicates).
Variant GFTLNSYGIS, VIYSDGRRTAYADSVK, GRAAGTNDS [Ctrl] showed 3.0 µM (3 of 6 replicates).
Variant GNTLNSYGIS, VIYSDGRRTFYGDNVK, GRAAGTFDS [Ctrl] showed 320 nM (3 of 6 replicates).
Variant HFTLESYGIS, VIYSDGRRTFYGDSVK, GRAAGTFDN [Ctrl] showed 17 nM (3 of 6 replicates).
Variant GFTINSYGIS, VIYSDGRRTFYSDSVK, GNAAGTFDS [GPLM_HC] showed 13 nM (5 of 6 replicates).
Variant GFQLNSYGIS, VIYSDGRRTMYQDSVK, GQAAGTFDS [GP_Gibbs] showed 25 nM (2 of 6 replicates).
Variant GFWLNSYGIS, VIYSDGRRTAYGDKVK, GTAAGTFDS [Ctrl] showed 510 pM (6 of 6 replicates).
Variant GFTLNEYGIS, VIYSDGRRTFLTDSVK, GRFFGTFDS [Rand] showed nd (0 of 6 replicates).
Variant GFTLNEYVIS, VAYSDGRRTFYTDSVK, GRFAGTFDS [Rand] showed nd (0 of 6 replicates).
Variant GFSLNMYGIS, VIYSDGRRTFYGDSVK, GTAAGTFDS [GP_HC] showed 2.6 nM (6 of 6 replicates).
Variant GFTLNEYGIS, VIYSDGRRTFYGDSVK, GRAAGTFVF [GPLM_HC] showed 9.0 nM (6 of 6 replicates).
Variant GFQLNDYGIS, VIYSDGRRTFYHDSVK, GRTAGTFDS [GP_Gen] showed 3.8 nM (4 of 6 replicates).
Variant GFTLNDYGIS, VIYSDGRRTFMGDSVK, GRAAGTFDS [Ctrl] showed 15 nM (2 of 6 replicates).
Variant GFNLDLYGIS, VIYSDGERTFYGDSVK, GRAAGTFDS [Ctrl] showed 8.9 nM (6 of 6 replicates).
Variant GFTLNSYGIS, VIYSDGRRTFYIDSVK, GQAAGTFDV [GP_Gen] showed 74 pM (1 of 6 replicates).
Variant GFTINSYGIS, VIYSDGRRTFYGDSVK, GYASGTFDS [Ctrl] showed nd (0 of 6 replicates).
Variant GFDLNEYGIS, VIYSDGRRTFYGDSVK, GKAAGTFDQ [GP_HC] showed 20 nM (6 of 6 replicates).
Variant KFDLNSYGIS, VIYSDGRRTFYQDSVK, GNAAGTFDS [GP_Gen] showed 2.1 nM (1 of 6 replicates).
Variant GFTLNSYGIS, VIYSDGERTFYHDSVK, GRAAGTFDW [Ctrl] showed 7.6 nM (2 of 6 replicates).
Variant GETLNSYGIS, VIYADGRRTFYNPSVK, GRNAGTFDS [Ctrl] showed 550 pM (6 of 6 replicates).
Variant GFTLNSYGIS, VIYSDGRRTFYGDSYK, GRAGGTFDS [Ctrl] showed nd (0 of 6 replicates).
Variant GFTLDSYGIS, VIYSDGRRTFYGDSVK, GRAAGTRLS [Rand] showed nd (0 of 6 replicates).
Variant KFSLNSYGIS, VIYSDGRRTFYSDSVK, GRTAGTFDS [GPLM_Gen] showed 170 nM (1 of 6 replicates).
Variant GFGLNSYGIS, VIYADGRRTFYGDSVK, GRAAGTFDS [GPLM_Gen] showed 31 nM (6 of 6 replicates).
Variant GFTLNSYGIS, VVYSDGLRTFYGDSVK, GRAAGTFDS [Ctrl] showed nd (0 of 6 replicates).
Variant GFSLNSYGIS, VIYSDGRRTFYGDNVK, GEAAGTFDT [GP_Gen] showed 1.6 nM (6 of 6 replicates).
Variant GFTLNNYGIS, VIYSDGRRTFYGDSVK, GQLAGTFDS [GP_HC] showed nd (0 of 6 replicates).
Variant GFELNSYGIS, VIYSDGRRTFYQDSVK, GKTAGTFDS [GP_Gen] showed 3.3 nM (6 of 6 replicates).
Variant GFTLNSYGIS, VIYSDGRRTFYGDSVK, GRVAGSFTV [GP_HC] showed 290 nM (3 of 6 replicates).
Variant GFSLNSYGIS, VIYSDGRRTFYGDNVK, GQAAGTFDS [GPLM_Gen] showed 3.5 nM (6 of 6 replicates).
Variant GFTLNSYGIS, VIYSDGRRTFYSDSVK, GQVAGTFDD [GP_Gibbs] showed 3.1 nM (6 of 6 replicates).
Variant GFTLNSYGIS, VIYSDGHRTMYGDSVK, GRLAGTFDS [Ctrl] showed 18 nM (1 of 6 replicates).
Variant GETLTSYGIS, VIYSDGRRTWYGDSVK, GRAAGAFDS [Ctrl] showed nd (0 of 6 replicates).
Variant GFMLNEYGIS, VIYSDGRRVFYGDSTR, GRAAGTFDS [Ctrl] showed 800 nM (2 of 6 replicates).
Variant GFTLNSYGIS, VKYSDGRRTFYGDSVK, GRAAITFDS [Ctrl] showed nd (0 of 6 replicates).
Variant GFTLNSYGIS, VIYSDGRRTFYADSVK, GKTAGTFDS [GPLM_Gen] showed 3.9 nM (6 of 6 replicates).
Variant GFGLNEYGIS, VIYSDGRRTFYADSVK, GRAAGTFDS [GPLM_Gen] showed 940 pM (6 of 6 replicates).
Variant GFLLNSYGIS, VIYSDGRRTFYDDSVK, GQLAGTFDS [GPLM_HC] showed 10 nM (6 of 6 replicates).
Variant GFTPDSFGIS, VIYSDGRRTFYGDKVK, DRAAGTFDS [Ctrl] showed nd (0 of 6 replicates).

Extract of 3 entries:

The variant GFTLNSYGIS, VIYSDGRRTFYADSVK, GKTAGTFDS [GPLM_Gen] showed 3.9 nM (6 of 6 replicates).
The variant GFTLNSYGIS, VIYSDGRRTFYIDSVK, GQAAGTFDV [GP_Gen] showed 74 pM (1 of 6 replicates).
The variant GFSLNMYGIS, VIYSDGRRTFYGDSVK, GTAAGTFDS [GP_HC] showed 2.6 nM (6 of 6 replicates).

Data: MIT Lincoln Laboratory AlphaSeq set, Li et al. 2023, doi:10.1038/s41467-023-39022-2, as distributed in FLAb.